Read-outs that look alike come from different tables or passages of the source.
Columns and labels:
[1] = test system: initially intubated and mechanically ventilated pediatric subjects 1 month to <17 years; conditions: low dose
[2] = test system: pediatric subjects 1 month to <17 years
[3] = test system: intubated and mechanically ventilated pediatric subjects 2 to <17 years
[4] = test system: intubated and mechanically ventilated pediatric subjects 12 to <24 months
[5] = Dose Level 1, full evaluable population
[6] = Dose Level 2, full evaluable population
[7] = Dose Level 3, full evaluable population
[8] = Dose Level 4, full evaluable population

Cc1cccc([C@H](C)c2cnc[nH]2)c1C [dexmedetomidine]
subjects not requiring rescue midazolam, number and percent of column N ([1]; s/p CPB, Age Group II (24 mo-<17 y), ASA P3, P4, N = 25): 4 (16.0) n (%) | subjects not requiring rescue midazolam, number and percent of column N ([1]; s/p CPB, Age Group II (24 mo-<17 y), total ASA class, N = 33): 4 (12.1) n (%) | median total amount of rescue midazolam while intubated ([1]; subjects that required rescue): 1.965 mg | subjects not requiring rescue midazolam, number and percent of column N ([1]; total, Age Group I (1-<24 mo), ASA P1, P2, N = 29): 9 (31.0) n (%) | subjects not requiring rescue midazolam, number and percent of column N ([1]; total, Age Group I (1-<24 mo), ASA P3, P4, N = 54): 16 (29.6) n (%) | subjects not requiring rescue midazolam, number and percent of column N ([1]; total, Age Group I (1-<24 mo), total ASA class, N = 83): 25 (30.1) n (%) | subjects not requiring rescue midazolam, number and percent of column N ([1]; total, Age Group II (24 mo-<17 y), ASA P1, P2, N = 29): 4 (13.8) n (%) | subjects not requiring rescue midazolam, number and percent of column N ([1]; total, Age Group II (24 mo-<17 y), ASA P3, P4, N = 54): 8 (14.8) n (%) | subjects not requiring rescue midazolam, number and percent of column N ([1]; total, Age Group II (24 mo-<17 y), total ASA class, N = 83): 12 (14.5) n (%) | subjects with moderate and severe treatment-related adverse events ([2]; age group I, low dose): 27.0% | treatment-related agitation, subjects ([2]; age group I, low dose): 3.2% | treatment-related bradycardia, subjects ([2]; age group I, low dose): 3.2% | treatment-related hypertension, subjects ([2]; age group I, low dose): 3.2% | treatment-related hypotension, subjects ([2]; age group I, low dose): 4.8% | subjects with moderate and severe treatment-related adverse events ([2]; age group II, low dose): 30.8% | deaths (all unrelated to dexmedetomidine) ([2]; all subjects): 4 | subjects with treatment-related adverse events leading to discontinuation of dexmedetomidine ([2]; all subjects (seven subjects)): 4.0% | subjects reporting severe treatment-related adverse events ([2]; overall (5/175), all in low dose groups): 2.9% | weight-adjusted total amount of rescue midazolam while intubated, mean ([3]; Dose Level 1 (LD 0.25/CD 0.2 μg/kg/hr), full evaluable population): 0.067 mg/kg | median time to first dose of rescue medication for sedation and analgesia ([3]; Dose Level 1, Table 26 (title: full evaluable population; b267: safety population)): 1.0 h | median time to successful extubation from start of DEX infusion [3, 5]: 0.6 h | total amount of rescue midazolam while intubated, mean [3, 5]: 1.292 mg | total amount of rescue midazolam while intubated, median [3, 5]: 0 mg | weight-adjusted total amount of rescue midazolam while intubated, median [3, 5]: 0 mg/kg | median time to first dose of rescue medication for sedation and analgesia ([3]; Dose Level 1, full evaluable population (Table 25)): 1.0 h | weight-adjusted total amount of rescue midazolam while intubated, mean ([3]; Dose Level 2 (LD 0.50/CD 0.4 μg/kg/hr), full evaluable population): 0.087 mg/kg | median time to first dose of rescue medication for sedation and analgesia ([3]; Dose Level 2, Table 26 (title: full evaluable population; b267: safety population)): 2.5 h | median time to successful extubation from start of DEX infusion [3, 6]: 0.8 h | total amount of rescue midazolam while intubated, mean [3, 6]: 1.369 mg | total amount of rescue midazolam while intubated, median [3, 6]: 1.000 mg | weight-adjusted total amount of rescue midazolam while intubated, median [3, 6]: 0.028 mg/kg | median time to first dose of rescue medication for sedation and analgesia ([3]; Dose Level 2, full evaluable population (Table 25)): 2.2 h | weight-adjusted total amount of rescue midazolam while intubated, mean ([3]; Dose Level 3 (LD 1.00/CD 0.7 μg/kg/hr), full evaluable population): 0.109 mg/kg | median time to first dose of rescue medication for sedation and analgesia ([3]; Dose Level 3, Table 26 (title: full evaluable population; b267: safety population)): 2.4 h | median time to successful extubation from start of DEX infusion [3, 7]: 1.7 h | total amount of rescue midazolam while intubated, mean [3, 7]: 2.141 mg | total amount of rescue midazolam while intubated, median [3, 7]: 0 mg | weight-adjusted total amount of rescue midazolam while intubated, median [3, 7]: 0 mg/kg | median time to first dose of rescue medication for sedation and analgesia ([3]; Dose Level 3, full evaluable population (Table 25)): 2.5 h | weight-adjusted total amount of rescue midazolam while intubated, mean ([3]; Dose Level 4 (LD 1.00/CD 2.00 μg/kg/hr), full evaluable population): 0.045 mg/kg | median time to first dose of rescue medication for sedation and analgesia ([3]; Dose Level 4, Table 26 (title: full evaluable population; b267: safety population)): 7.8 h | median time to successful extubation from start of DEX infusion [3, 8]: 6.8 h | total amount of rescue midazolam while intubated, mean [3, 8]: 0.769 mg | total amount of rescue midazolam while intubated, median [3, 8]: 0 mg | weight-adjusted total amount of rescue midazolam while intubated, median [3, 8]: 0 mg/kg | median time to first dose of rescue medication for sedation and analgesia ([3]; Dose Level 4, full evaluable population (Table 25)): 7.8 h | median time to extubation ([3]; Dose Levels 1, 2 and 3, full evaluable population): 0.6 to 1.7 h | subjects who received rescue midazolam for sedation while intubated ([3]; Group I (≥2 to <6 y), Dose Level 1 (LD 0.25/CD 0.2 μg/kg/hr), full evaluable population): 50.0 n (%) | subjects who received rescue midazolam for sedation while intubated ([3]; Group I (≥2 to <6 y), Dose Level 1 (LD 0.25/CD 0.2 μg/kg/hr), full evaluable population, listed as Dex): 4 (50.0) n (%) | subjects who received rescue midazolam for sedation while intubated ([3]; Group I (≥2 to <6 y), Dose Level 2 (LD 0.50/CD 0.4 μg/kg/hr), full evaluable population): 66.7 n (%) | subjects who received rescue midazolam for sedation while intubated ([3]; Group I (≥2 to <6 y), Dose Level 2 (LD 0.50/CD 0.4 μg/kg/hr), full evaluable population, listed as Dex): 4 (66.7) n (%) | subjects who received rescue midazolam for sedation while intubated ([3]; Group I (≥2 to <6 y), Dose Level 3 (LD 1.00/CD 0.7 μg/kg/hr), full evaluable population): 50.0 n (%) | subjects who received rescue midazolam for sedation while intubated ([3]; Group I (≥2 to <6 y), Dose Level 3 (LD 1.00/CD 0.7 μg/kg/hr), full evaluable population, listed as Dex): 3 (50.0) n (%) | subjects who received rescue midazolam for sedation while intubated ([3]; Group I (≥2 to <6 y), Dose Level 4 (LD 1.00/CD 2.00 μg/kg/hr), full evaluable population): 16.7 n (%) | subjects who received rescue midazolam for sedation while intubated ([3]; Group I (≥2 to <6 y), Dose Level 4 (LD 1.00/CD 2.00 μg/kg/hr), full evaluable population, listed as Dex): 1 (16.7) n (%) | subjects who received rescue midazolam for sedation while intubated ([3]; Group II (≥6 to <17 y), Dose Level 1 (LD 0.25/CD 0.2 μg/kg/hr), full evaluable population): 37.5 n (%) | subjects who received rescue midazolam for sedation while intubated ([3]; Group II (≥6 to <17 y), Dose Level 1 (LD 0.25/CD 0.2 μg/kg/hr), full evaluable population, listed as Dex): 3 (37.5) n (%) | subjects who received rescue midazolam for sedation while intubated ([3]; Group II (≥6 to <17 y), Dose Level 2 (LD 0.50/CD 0.4 μg/kg/hr), full evaluable population): 42.9 n (%) | subjects who received rescue midazolam for sedation while intubated ([3]; Group II (≥6 to <17 y), Dose Level 2 (LD 0.50/CD 0.4 μg/kg/hr), full evaluable population, listed as Dex): 3 (42.9) n (%) | subjects who received rescue midazolam for sedation while intubated ([3]; Group II (≥6 to <17 y), Dose Level 3 (LD 1.00/CD 0.7 μg/kg/hr), full evaluable population): 25.0 n (%) | subjects who received rescue midazolam for sedation while intubated ([3]; Group II (≥6 to <17 y), Dose Level 3 (LD 1.00/CD 0.7 μg/kg/hr), full evaluable population, listed as Dex): 2 (25.0) n (%) | subjects who received rescue midazolam for sedation while intubated ([3]; Group II (≥6 to <17 y), Dose Level 4 (LD 1.00/CD 2.00 μg/kg/hr), full evaluable population): 25.0 n (%) | subjects who received rescue midazolam for sedation while intubated ([3]; Group II (≥6 to <17 y), Dose Level 4 (LD 1.00/CD 2.00 μg/kg/hr), full evaluable population, listed as Dex): 2 (25.0) n (%) | subjects who received rescue midazolam for sedation while intubated ([3]; total age group, Dose Level 1, N = 16, full evaluable population): 7 (43.8) n (%) | subjects who received rescue midazolam for sedation while intubated ([3]; total age group, Dose Level 2, N = 13, full evaluable population): 7 (53.8) n (%) | subjects who received rescue midazolam for sedation while intubated ([3]; total age group, Dose Level 3, N = 14, full evaluable population): 5 (35.7) n (%) | subjects who received rescue midazolam for sedation while intubated ([3]; total age group, Dose Level 4, N = 14, full evaluable population): 3 (21.4) n (%) | time of (first) rescue midazolam after start of infusion ([4]; Subject 01-0001, dose level 2): 1.2 h | time of (first) rescue midazolam after start of infusion ([4]; Subject 01-0003, dose level 1): 5.27 h | time of extubation from the start of study drug ([4]; Subject 01-0006, dose level 1): 17.7 h | time of extubation from the start of study drug ([4]; Subject 01-0007, dose level 2): 26.27 h | median absolute time in target UMSS range 2 to 4 ([4]; dose level 1): 3.6 h | median absolute time with total UMSS score<2 ([4]; dose level 1): 2.5 h | median total FLACC score ([4]; dose level 1): 1.6 | time in target UMSS range 2 to 4 ([4]; dose level 1): 58.9 % of the time | time with total UMSS score<2 ([4]; dose level 1): 41.1 % of the time | median absolute time in target UMSS range 2 to 4 ([4]; dose level 2): 5.9 h | median absolute time with total UMSS score<2 ([4]; dose level 2): 0.3 h | median total FLACC score ([4]; dose level 2): 4.4 | time in target UMSS range 2 to 4 ([4]; dose level 2): 95.1 % of the time | time with total UMSS score<2 ([4]; dose level 2): 4.9% | effectiveness at sedating and keeping subjects comfortable ([4]; maintenance 0.5 μg/kg/hr and 0.75 μg/kg/hr): moderately effective

— US20130096170A1 (priority 2011, published 2013)
